Assay results from patent US20250295642A1, “FLUOROQUINOXALINONE DERIVATIVE FOR SELECTIVELY INHIBITING PARP1” (MEDSHINE DISCOVERY INC., priority 2022, published 2025).

Key:
[1] = In vitro liver microsomal stability, human liver microsomes; conditions: 1 μM, 0.5 mg/mL, NADPH, up to 60 minutes
[2] = In vitro liver microsomal stability, mouse liver microsomes

CNC(=O)c1ccc(N2CCN(Cc3ccc4c([nH]c(=O)c5cccnc54)c3F)CC2)c(F)n1 [Compound 15]
CLint(liver) [1]: <8.6 mL/min/kg
T1/2 [1]: >2.42 h
CLint(liver) [2]: 74 mL/min/kg
T1/2 [2]: 1.28 h

[2H]C([2H])([2H])NC(=O)c1ccc(N2CCN(Cc3ccc4c([nH]c(=O)c5cccnc54)c3F)CC2)c(F)n1 [Compound 29]
half-life at 1 μM [2]: > 2.42 h
